The list is not random: actives were taken first. Their share in the collection is about 1.8%.
Cneo AK release – Cryptococcus neoformans cell lysis inducers, primary screen, AK release luminescence, single concentration. C. neoformans lysis, adenylate kinase release luminescence, 4 h; normalised: neutral wells 0, clomiphene wells 100. lysis activity, % at 15 µM. actives 0.2% (n = 360,000). AID 651654, 2012;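 active means mean lysis activity across replicates of at least 80%, whatever share of replicates individually reach that level; inactive means mean lysis activity below 80%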
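Schedule: static 4 h at 37 °C with compound, 1 h detection; system: C. neoformans cells; benchmarks: Clomiphene as positive control; buffer or medium: fresh YPD medium; measure: luminescence rise reflecting yeast cell lysis; measured by: luminescent adenylate kinase detection reagent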
DENV2 CPE – inhibitors of DENV2 cytopathic effect, primary screen, cell-based, plate reader, single concentration; CPE inhibition, % at 9.99 µM; DENV2-infected cells, cytopathic effect rescue; actives 1.7% (n = 350,000); in the data active means CPE inhibition above about 20%, passing the limit was not always enough; inconclusive means no clear call, values can overlap the other calls; tested in BHK-21 cells
E-selectin induc – E-selectin induction in HUVECs, primary screen, imaging, HUVEC, immunofluorescence imaging, single point; P16581; AID 686992, 2013; activation, % at 7.58 µM; normalized: neutral wells 0, TNF-alpha wells 100; actives 0.37% (n = 260,000);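 active means mean E-selectin-positive cell signal at least 10% of the positive control, reached in at least 60% of replicates, without over 20% cell loss; inconclusive means no rule given, readout overlaps actives, possibly toxicity-flagged; inactive means the rest, including those meeting only one limit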
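Read-out: % PE-positive cells | Test system: HUVEC | Doses: One compound dose added by pin transfer | Buffer or medium: EGM-2 over gelatin coat | Signal: Immunofluorescence imaging | Benchmarks: TNF-alpha, DMSO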
Yeast UUG start-1 – yeast start codon fidelity modulation | S. cerevisiae UUG-firefly luciferase reporter, luminescence/redox ratio | activity score, % at 18.7 µM | 0.13% of 350,000 active | AID 602363;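 active means replicate mean at a twofold rise or more, about +100% in these data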;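 further: firefly luciferase made from a UUG start codon reports start codon fidelity; reporter light over untreated wells divided by growth signal over untreated wells; some hits fall short of that in this replicate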
Yeast UUG start-2 – enhancers of UUG start codon usage in yeast, dose response, S. cerevisiae, UUG firefly luciferase, cherry-pick, set 2; shares compounds with Yeast UUG start-1; luminescence, 4 h; 100% means double the DMSO signal; activation, % at 38 µM; 540 tested, under 10 active; AID 652061, 2013;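 active means signal increase whose fitted curve reaches an absolute level of 40 at a concentration under 10 µM; inactive means activity opposite to the expected increase, or the rest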
A number is an active result; – = inactive; ? = inconclusive; · = no result.

SMILES | Cneo AK release | DENV2 CPE | E-selectin induc | Yeast UUG start-1 | Yeast UUG start-2
CCN(CC)CCNC(=O)C(C)c1nn(CC)c(=O)c2ccccc12 (stereo not given) | · | – | · | · | –
CCN(CC)CCNC(=O)Cn1nc(Cc2ccccc2)c2ccccc2c1=O | – | · | · | – | ·
CCN(CC)CCNC(=O)Cc1nn(CC)c(=O)c2ccccc12 | – | – | · | – | –
CC(C)c1cn(CC[C@@H]2CC[C@@H](NC(=O)C3CCCC3)[C@H](CO)O2)nn1 | – | – | – | – | ·
Cc1ccccc1S(=O)(=O)NCC[C@H]1CC[C@@H](NC(=O)C2CCCCC2)[C@@H](CO)O1 | – | ? | – | – | ·
O=C(CCN1CCCCC1)NCC[C@H]1CC[C@H](NC(=O)C2CCCC2)[C@H](CO)O1 | – | – | – | 166.9 | –
COc1ccccc1S(=O)(=O)N[C@H]1CC[C@H](CCNC(=O)C2CCCC2)O[C@H]1CO | – | – | – | 224.0 | –
Cc1ccccc1S(=O)(=O)NCC[C@H]1CC[C@H](NC(=O)C2CCCCC2)[C@H](CO)O1 | – | – | – | 210.9 | –
CC(C)c1cn(CC[C@@H]2CC[C@H](NC(=O)C3CCCCC3)[C@H](CO)O2)nn1 | – | – | – | 100.1 | –
C[C@@H]1CN([C@@H](C)CO)C(=O)c2cccc(NC(=O)C3CCCCC3)c2O[C@@H]1CN(C)Cc1ccc2c(c1)OCO2 | – | – | – | – | ·
O=C(C[C@H]1C=C[C@@H](NC(=O)c2cccc(F)c2)[C@H](CO)O1)Nc1nccs1 | – | · | – | · | ·
CCC(=O)Nc1ccc2c(c1)C(=O)N(C)C[C@@H](OC)[C@@H](C)CN(Cc1ccccc1C(=O)O)[C@@H](C)CO2 | – | – | – | – | ·
COc1ccc(CCNS(=O)(=O)c2ccc(Br)cc2)cc1OC | – | – | – | – | ·
COc1ccc(CCNS(=O)(=O)c2ccc(Cl)cc2)cc1OC | – | – | – | – | –
COc1ccc(CCNS(=O)(=O)c2ccccc2)cc1OC | – | · | · | 705.5 | –
COc1ccc(CCNS(=O)(=O)c2ccc(OC)c(OC)c2)cc1OC | – | – | – | – | ·
O=C(Nc1cc(F)ccc1F)N1CC(=O)N2[C@H](C1)[C@H](c1ccc(-c3cccc(F)c3)cc1)[C@@H]2CO | · | – | – | · | ·
CCCc1nc(-c2ccc(-c3ccc(F)cc3)cc2)no1 | – | · | · | – | ·
CCCc1nc(-c2cc3ccccc3[nH]c2=O)no1 | – | – | · | 226.9 | –
Cc1ccc(OCCCCn2c(CO)nc3ccccc32)cc1 | – | – | · | 130.0 | –
OC[C@H]1[C@@H](c2ccc(C#CC3(O)CCCC3)cc2)[C@@H]2CN(Cc3cccnc3)CCCCN12 | – | – | – | – | ·
CCCNC(=O)[C@H]1[C@H](CO)[C@H]2Cn3c(ccc(C4=CCCC4)c3=O)[C@@H]1N2C(=O)C1CC1 | – | – | – | · | ·
Cc1cnn(Cc2ccccc2)c1N | – | · | · | 604.9 | –
CC(=O)N1Cc2cc(C(=O)NCc3cccc(F)c3)nc(-c3cccc(C4=CCCC4)c3)c2[C@@H]1CCO | · | – | – | · | ·
COc1ccc(C(=O)Nc2ccccc2C(N)=O)cc1 | – | · | · | – | ·
SMILES | Cneo AK release | DENV2 CPE | E-selectin induc | Yeast UUG start-1 | Yeast UUG start-2
COC(=O)c1ccccc1NC(=O)CNC(=O)c1ccc(OC)cc1 | – | – | · | 264.2 | –
COc1ccc(N/C(N)=N/c2nc(CSc3nnc(C)s3)cc(=O)[nH]2)cc1 | – | – | · | 171.7 | –
Cc1ccc(N/C(N)=N/c2nc(CSc3nnc(C)s3)cc(=O)[nH]2)c(C)c1 | · | – | · | · | ·
CCCNC(=O)[C@@H]1[C@@H](CO)[C@@H]2Cn3c(ccc(-c4ccc(F)cc4)c3=O)[C@H]1N2CC | – | – | – | · | ·
COc1ccc(S(=O)(=O)N(C)C[C@@H]2OCCCC[C@@H](C)Oc3ccc(NS(=O)(=O)c4cccs4)cc3C(=O)N([C@@H](C)CO)C[C@H]2C)cc1 | – | – | – | – | ·
O=[N+]([O-])c1cc(C(F)(F)F)ccc1Oc1cccnc1[N+](=O)[O-] | – | · | · | 190.1 | –
O=C(Nc1ccc(F)cc1)c1ccccc1Oc1ccc(C(F)(F)F)cc1[N+](=O)[O-] | · | · | – | · | ·
C/C=C/c1cnc2c(c1)C(=O)N([C@@H](C)CO)C[C@H](C)[C@@H](CN(C)S(=O)(=O)c1ccc(OC)cc1)O2 | – | – | · | – | ·
Cc1cc(=O)[nH]c(=O)n1Cc1ccccc1 | – | – | – | 195.8 | –
CCCN(CC(=O)Nc1ccccc1C)C(=O)Cc1cccs1 | – | – | – | – | ·
CCCN(CC(=O)Nc1ccccc1C)C(=O)/C=C/c1cccs1 | – | · | · | active | –
COc1cccc(C(=O)Nc2ccc3c(c2)C(=O)N(C)[C@H]2CC[C@@H](CC(=O)NCc4ccccc4F)O[C@@H]2CO3)c1 | · | · | – | · | ·
O=C(Cc1ccccc1)NC(NNc1ccccc1)(C(F)(F)F)C(F)(F)F | – | · | · | 480.8 | –
Cc1cccc(NC(=O)Nc2ccc3c(c2)C(=O)N(C)[C@@H]2CC[C@H](CC(=O)NCc4ccccc4Cl)O[C@@H]2CO3)c1 | – | – | – | · | ·
CCc1ccc(NC(=O)NCCN2CCCCC2)cc1 | – | – | · | 107.6 | –
CCc1ccc(N2CCN(CCNC(=O)Nc3ccccc3)CC2)cc1 | – | – | · | – | ·
O=C(CNC(=O)c1ccco1)N=Nc1c(O)n(CCc2ccccc2)c2ccccc12 | – | – | – | 229.0 | –
CCn1c(O)c(N=NC(=O)CNC(=O)Cc2ccccc2)c2ccccc21 | – | – | · | – | ·
CNC[C@H]1Oc2ccc(NC(=O)Nc3ccc4c(c3)OCO4)cc2C(=O)N([C@@H](C)CO)C[C@H]1C | – | – | – | – | ·
CC(C)CC#Cc1ccc([C@H]2[C@@H](CO)N3CCCCN(S(=O)(=O)c4ccc(F)cc4)C[C@H]23)cc1 | – | – | – | 81.4 | –
CC(C)C(O)(C#CCN1CCCC1)c1ccccc1 (stereo not given) | · | · | · | · | –

Assay outcomes from PubChem.
